For 3 compounds, thallium flux rate (normalised fluorescence) results are on record in PubChem BioAssay AID1716 (Vanderbilt High Throughput Screening Facility, 2009).

The entries are a selection whose mix differs from that of the whole data set. Results filed as inconclusive are left out. The source made the active and inactive calls.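 How the source made its calls: active means thallium flux rate significantly above the same plate's solvent-only control wells, beyond their mean plus 3 SD; inconclusive means the two replicate wells gave conflicting results; inactive means the rest.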

A short description of this assay: thallium flux modulation in parental HEK cells, confirmation, counter-screen for KCC2 modulator project, cell-based, counterscreen 1 (AID 1716). As to conditions: HEK293 parental cells, thallium flux FluoZin2, ouabain; at 10 µM; baseline-ratio fluorescence slope, 10–20 s after thallium.
Consider `O=c1c2cc([N+](=O)[O-])ccc2[nH]c2c([N+](=O)[O-])cc([N+](=O)[O-])cc12`, for which the thallium flux rate (normalised fluorescence) is active: 0.0124.

Turning to `O=P(Nc1nc2ccc(Cl)cc2s1)(c1ccccc1)c1ccccc1`, the thallium flux rate (normalised fluorescence) was active: 0.0166.

With `C[N+]1=C2C=CC=CC=C2SC12C([N+](=O)[O-])=CC([N+](=O)[O-])=C[C-]2[N+](=O)[O-]` (stereo not drawn), the thallium flux rate (normalised fluorescence) is active: 0.021.
